BindingDB's records for doi:10.1176/jnp.8.2.223 (1996)

The chains behind the UniProt entries cited, without tags or fusion partners.
UniProt P20288, whole entry: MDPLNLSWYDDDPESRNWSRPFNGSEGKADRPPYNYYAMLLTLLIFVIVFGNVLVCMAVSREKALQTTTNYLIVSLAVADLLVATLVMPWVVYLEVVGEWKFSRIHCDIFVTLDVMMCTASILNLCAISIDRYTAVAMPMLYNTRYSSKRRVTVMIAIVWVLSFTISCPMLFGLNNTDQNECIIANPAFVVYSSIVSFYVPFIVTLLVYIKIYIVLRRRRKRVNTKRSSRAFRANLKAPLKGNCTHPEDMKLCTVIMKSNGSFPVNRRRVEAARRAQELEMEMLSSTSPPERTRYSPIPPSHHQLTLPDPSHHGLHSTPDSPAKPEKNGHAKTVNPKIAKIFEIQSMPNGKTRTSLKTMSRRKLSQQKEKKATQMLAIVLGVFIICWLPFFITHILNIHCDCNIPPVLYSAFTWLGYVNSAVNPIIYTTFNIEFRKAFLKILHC

Molecular target: D(2) dopamine receptor (Bos taurus, UniProt P20288)

Ki: 0.55 nM
Structure (SMILES): CC(C)(C)[C@]1(O)CCN2C[C@H]3c4ccccc4CCc4cccc(c43)[C@@H]2C1
